Our source for the EC50 values is patent US10814010B2, “FOXC2 inhibitor and methods of use thereof” (The Board of Regents of The University of Texas System, priority 2018, dated 2020).

For the test, the system named is PC3 cells. Put plainly: Co-treatment MTT assay, PC3. The following applies: Homo sapiens, PC-3, 24 h, read-out: EC50 of docetaxel in co-treatment with MC-1-F2. In general terms: Formazan colour is commonly taken as a measure of viable cells.

Each structure is given as a SMILES string.

Usually EC50 stands for the concentration giving half of the maximal effect.

Regarding `CC(=O)O[C@@]12CO[C@@H]1C[C@H](O)[C@@]1(C)C(=O)[C@H](O)C3=C(C)[C@@H](OC(=O)[C@H](O)[C@@H](NC(=O)OC(C)(C)C)c4ccccc4)C[C@@](O)([C@@H](OC(=O)c4ccccc4)[C@H]21)C3(C)C` [docetaxel, reference compound], the EC50 turned out to be 0.266 nM.
